# Key:
# [1] = molecular target: human α-thrombin (human), P00734; test: microplate thermal shift assay, 1,8-ANS fluorescence; Kd at Tm (329.52 K) calculated with equation (1), single ligand
# [2] = molecular target: human α-thrombin (human), P00734; test: microplate thermal shift assay, 1,8-ANS fluorescence; Kd at 298 K estimated with equation (3), single ligand
binder,measurement,setting,value
"DGDFEEIPEEYL (modifications not checked) [Hirugen (hirudin 53-64), P01050 53-64]",Kd,[1],185 nM
same,Kd,[2],23 nM
